Measurements from patent publication US20050260212A1 (PDL BIOPHARMA, published 2005).

Biological target: T1, murine LFL2-Fc fusion (mouse; human, UniProt Q80X72 22-536; P01857 99-330 = IgG part, limits assumed)
T1 construct: extracellular domain;domain: constant region of the human gamma 1 immunoglobulin heavy chain; 'Generated as described above for human LFL2'; also called Mouse LFL2-Fc
Assay: SPR (BIAcore 3000), mAb immobilised on CM5, LFL2-Fc analyte, bivalent analyte model
Protocol: Kinetics measurements between human LFL2-Fc fusion protein and anti-LFL2 mAbs were performed using BIAcore 3000™ (BIAcore™, Sweden). Anti-LFL2 mAbs were immobilized with 100 RUs on Research-grade CM5 sensor chip by the BIAcore amine coupling reagents (N-ethyl-N′-dimethylaminopropylcarbodiimide, EDC; N-hydroxysuccinimide, NHS; and ethanolamine HCl, pH8.5). Assays were run at a flow rate of 30 ul/min at room temperature. Three-minute association phase of each LFL2-Fc was followed by ten-minute injection of running buffer (10 mM Hepes, 300 mM sodium chloride, 3 mM EDTA, 0.05% P-20, pH7.4) to monitor dissociation. The mAb surface was regenerated with 25 mM NaOH. The binding kinetics of each LFL2-mAb pair was calculated from the data at six different concentrations (2048 nM, 512 nM, 128 nM, 32 nM, 8 nM, 2 nM) of LFL2-Fc analyte, using the BIAevaluate program. Double referencing was applied in each analysis to eliminate background responses from reference surface and buffer only control. The affinity (KD) of binding was obtained by simultaneously fitting the association and dissociation phases of the sensorgram from the analyte concentration series using the bivalent analyte model from BIAevaluate software.

B1: anti-LFL2 mAb M25 (antibody, V domains shown)
VH: QVQLQQSGAELMKPGASVKISCKATGYKFSSYWIEWVKQRPGHGLEWIGEILPGSDTTNYNEKFKDKATFTSDTSSNTAYMQLSSLTSEDSAVYYCARDRGNYRAWFGYWGQGTLVTVS
VL: DIQMTQTSSLSASLGDRVTISCRASQDISNYLNWYQQKPDGTVKFLIYYTSRLHSGVPSRFSGSGSGTDYSLTISYLEPEDIATYFCQQGEALPWTFGGGTKLEIKR
- Kd: 0.87 nM
